This note sets out measurements from ChEMBL document CHEMBL2074017, “Distinct characteristics of organic cation transporters, OCT1 and OCT2, in the basolateral membrane of renal tubules” (Pharm Res, 2001).

The assay has as its target T1, Solute carrier family 22 member 1 (Rattus norvegicus, UniProt Q63089).
T1 sequence (Q63089 whole entry): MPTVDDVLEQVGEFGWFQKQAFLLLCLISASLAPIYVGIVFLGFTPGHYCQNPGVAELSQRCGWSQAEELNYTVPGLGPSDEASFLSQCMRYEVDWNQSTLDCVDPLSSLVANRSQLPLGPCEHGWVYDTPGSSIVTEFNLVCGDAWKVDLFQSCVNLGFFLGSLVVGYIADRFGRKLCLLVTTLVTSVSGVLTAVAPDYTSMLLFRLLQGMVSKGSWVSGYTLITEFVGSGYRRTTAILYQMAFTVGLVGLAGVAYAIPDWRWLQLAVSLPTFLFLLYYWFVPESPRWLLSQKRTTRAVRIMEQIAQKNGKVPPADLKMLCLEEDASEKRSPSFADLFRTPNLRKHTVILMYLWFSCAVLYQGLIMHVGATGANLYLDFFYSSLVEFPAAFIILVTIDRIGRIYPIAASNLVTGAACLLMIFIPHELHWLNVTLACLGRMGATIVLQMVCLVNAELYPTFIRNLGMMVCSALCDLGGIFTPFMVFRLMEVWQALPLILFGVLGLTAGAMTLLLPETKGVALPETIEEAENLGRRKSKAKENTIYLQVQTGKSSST
In kind it is functional, cell-based, MDCK.

One may read the IC50 as the concentration that gives 50% inhibition. A low value points to greater potency.

`C[N+](C)(C)C` [TETRAMETHYLAMMONIUM] yielded an IC50 of 1.14 mM.
